Experimental data as given in patent US10201546B2, “Quinolinyl modulators of RORγt” (Janssen Pharmaceutica NV, priority 2013, dated 2019).
Like-named read-outs stand apart in the source and are kept apart here.

Sequences of proteins named here, by UniProt entry; tags and fusion partners are left off. A line that says so, or that is headed by a name, gives the form on record, which may keep a tag or linker.
UniProt P51449, other isoform, or with tags, fused parts or gaps: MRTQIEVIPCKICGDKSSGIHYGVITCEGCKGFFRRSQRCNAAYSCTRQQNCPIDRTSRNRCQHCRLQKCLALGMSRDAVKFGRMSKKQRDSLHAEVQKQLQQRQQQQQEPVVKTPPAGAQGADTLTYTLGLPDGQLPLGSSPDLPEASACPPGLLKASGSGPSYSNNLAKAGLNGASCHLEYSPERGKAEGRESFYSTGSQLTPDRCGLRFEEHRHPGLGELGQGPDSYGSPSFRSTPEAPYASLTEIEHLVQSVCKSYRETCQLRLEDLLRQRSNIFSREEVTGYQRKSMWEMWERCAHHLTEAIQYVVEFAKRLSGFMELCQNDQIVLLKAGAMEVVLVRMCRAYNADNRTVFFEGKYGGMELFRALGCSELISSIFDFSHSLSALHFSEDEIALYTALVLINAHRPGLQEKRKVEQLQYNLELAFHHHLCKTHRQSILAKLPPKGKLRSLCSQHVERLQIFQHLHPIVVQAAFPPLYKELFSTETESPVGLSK

How the values were obtained:
[1] = molecular target: T1, GAL4-DNA binding domain (DBD)-RORγt fusion protein (full-length human RORγt) (Homo sapiens (Human), UniProt P51449); settings: for RORγt (FL) Reporter Assay, % inhibition @ 6 μM / IC50: HEK293T cells; for IC50: read-out: RORγt (FL) Reporter Assay, IC50
[2] = molecular target: T1, GAL4-DNA binding domain (DBD)-RORγt fusion protein (full-length human RORγt); assay: cell-based; settings: HEK-293T, read-out: RORγt (FL) Reporter Assay, % inhibition @ 6 μM, @ 6 μM; HEK293T cells
[3] = * at 2 μM compound concentration

| SMILES | IC50 [1] [µM] | RORγt (FL) Reporter Assay, % inhibition ([1]; unstarred values) [%] | also measured |
| --- | --- | --- | --- |
| COc1nc2ccc(C(O)(c3cnc(C)n3C)c3cnc(C)n3C)cc2c(Cl)c1OC1CCCN(C)C1 (single isomer, unassigned) [Example 51b, (4-Chloro-2-methoxy-3-{[1-methylpiperidin-3-yl]oxy}quinolin-6-yl)[bis(1,2-dimethyl-1H-imidazol-5-yl)]methanol] | > 6 |  | RORγt (FL) Reporter Assay, % inhibition @ 6 μM [1]: 4% |
| COc1nc2ccc(C(O)(c3cnc(C)n3C)c3cnc(C)n3C)cc2c(Cl)c1OC1CCCN(C)C1 (single isomer, unassigned) [Example 51c, (4-Chloro-2-methoxy-3-{[1-methylpiperidin-3-yl]oxy}quinolin-6-yl)[bis(1,2-dimethyl-1H-imidazol-5-yl)]methanol] | > 6 |  | RORγt (FL) Reporter Assay, % inhibition @ 6 μM [1]: 13% |
| COc1nc2ccc(C(O)(c3cnnn3C)C3CN(C(C)=O)C3)cc2c(Cl)c1CN1CCC(C(F)(F)F)CC1 (single isomer, unassigned) [Example 123b, 1-(3-((4-Chloro-2-methoxy-3-((4-(trifluoromethyl)piperidin-1-yl)methyl)quinolin-6-yl)(hydroxy)(1-methyl-1H-1,2,3-triazol-5-yl)methyl)azetidin-1-yl)ethanone] |  | 95 |  |
| COc1nc2ccc(C(O)(c3cnc(C)n3C)C3CN(C(C)=O)C3)cc2c(Cl)c1CN1CCC(C(F)(F)F)CC1 (single isomer, unassigned) [Example 124b, 1-(3-((4-Chloro-2-methoxy-3-((4-(trifluoromethyl)piperidin-1-yl)methyl)quinolin-6-yl)(1,2-dimethyl-1H-imidazol-5-yl)(hydroxy)methyl)azetidin-1-yl)ethanone] |  | 87 |  |
| COc1nc2ccc(C(O)(c3cnc(C)n3C)C3CN(C(C)=O)C3)cc2c(Cl)c1CN1CCC(C(F)(F)F)CC1 (single isomer, unassigned) [Example 124c, 1-(3-((4-Chloro-2-methoxy-3-((4-(trifluoromethyl)piperidin-1-yl)methyl)quinolin-6-yl)(1,2-dimethyl-1H-imidazol-5-yl)(hydroxy)methyl)azetidin-1-yl)ethanone] |  | 87 |  |
| COc1nc2ccc(C(O)(c3ccnc(C(F)(F)F)c3)c3cnc(C)n3C)cc2c(Cl)c1CN1CCC(C(F)(F)F)CC1 (single isomer, unassigned) [Example 126b, (4-Chloro-2-methoxy-3-((4-(trifluoromethyl)piperidin-1-yl)methyl)quinolin-6-yl)(1,2-dimethyl-1H-imidazol-5-yl)(2-(trifluoromethyl)pyridin-4-yl)methanol] |  |  | RORγt (FL) Reporter Assay, % inhibition [1, 3]: 101* % |
| COc1nc2ccc(C(O)(c3ccnc(C(F)(F)F)c3)c3cnc(C)n3C)cc2c(Cl)c1CN1CCC(C(F)(F)F)CC1 (single isomer, unassigned) [Example 126c, (4-Chloro-2-methoxy-3-((4-(trifluoromethyl)piperidin-1-yl)methyl)quinolin-6-yl)(1,2-dimethyl-1H-imidazol-5-yl)(2-(trifluoromethyl)pyridin-4-yl)methanol] |  |  | RORγt (FL) Reporter Assay, % inhibition [1, 3]: 78* % |
| COc1nc2ccc(C(O)(c3ccnc(C(F)(F)F)c3)c3cnnn3C)cc2c(Cl)c1CN1CCC(C(F)(F)F)CC1 (single isomer, unassigned) [Example 129b, (4-Chloro-2-methoxy-3-((4-(trifluoromethyl)piperidin-1-yl)methyl)quinolin-6-yl)(1-methyl-1H-1,2,3-triazol-5-yl)(2-(trifluoromethyl)pyridin-4-yl)methanol] |  | 88 |  |
| COc1nc2ccc(C(O)(c3cnc(C)n3C)C3CCOCC3)cc2c(Cl)c1CN1CCC(C(F)(F)F)CC1 (single isomer, unassigned) [Example 130c, (4-Chloro-2-methoxy-3-((4-(trifluoromethyl)piperidin-1-yl)methyl)quinolin-6-yl)(1,2-dimethyl-1H-imidazol-5-yl)(tetrahydro-2H-pyran-4-yl)methanol] |  | 87 |  |
| COc1nc2ccc(C(O)(c3ccc(C(F)(F)F)nc3)C3CN(C(C)=O)C3)cc2c(Cl)c1CN1CCC(C(F)(F)F)CC1 (single isomer, unassigned) [Example 131c, 1-(3-((4-Chloro-2-methoxy-3-((4-(trifluoromethyl)piperidin-1-yl)methyl)quinolin-6-yl)(hydroxy)(6-(trifluoromethyl)pyridin-3-yl)methyl)azetidin-1-yl)ethanone] |  |  | RORγt (FL) Reporter Assay, % inhibition [1, 3]: 94* % |
| COc1nc2ccc(C(O)(c3ccc(C)nc3C)c3cnnn3C)cc2c(Cl)c1C1CCCC1 (single isomer, unassigned) [Example 136b, (4-Chloro-3-cyclopentyl-2-methoxyquinolin-6-yl)(2,6-dimethylpyridin-3-yl)(1-methyl-1H-1,2,3-triazol-5-yl)methanol] |  | 79 |  |
| COc1nc2ccc(C(O)(c3ccc(C(F)(F)F)nc3)c3cncn3C)cc2c(C#N)c1CN1CCC(C(F)(F)F)CC1 (single isomer, unassigned) [Example 191c, 6-(Hydroxy(1-methyl-1H-imidazol-5-yl)(6-(trifluoromethyl)pyridin-3-yl)methyl)-2-methoxy-3-((4-(trifluoromethyl)piperidin-1-yl)methyl)quinoline-4-carbonitrile] |  | 95 |  |
| COc1nc2ccc(C(O)(c3cnc(C)n3C)c3cnc(C)n3C)cc2c(Cl)c1OCC1CCCN1C (stereo not shown) [Example 52, {4-Chloro-2-methoxy-3-[(1-methylpyrrolidin-2-yl)methoxy]quinolin-6-yl}[bis(1,2-dimethyl-1H-imidazol-5-yl)]methanol] | > 6 |  | inhibition at 6 µM [2]: 10% |
| COc1nc2ccc(C(O)(c3ccc(C)nc3C)c3cnnn3C)cc2c(Cl)c1C(=O)N1CCCC1 (stereo not shown) [Example 151, [4-Chloro-2-methoxy-3-(pyrrolidin-1-ylcarbonyl)quinolin-6-yl](2,6-dimethylpyridin-3-yl)(1-methyl-1H-1,2,3-triazol-5-yl)methanol] | > 6 | 45 |  |
| COc1nc2ccc(C(O)(c3cnc(C)n3C)c3cnc(C)n3C)cc2c(Cl)c1CNC(=O)CC(F)(F)F [Example 185, N-((6-(Bis(1,2-dimethyl-1H-imidazol-5-yl)(hydroxy)methyl)-4-chloro-2-methoxyquinolin-3-yl)methyl)-3,3,3-trifluoropropanamide] | > 6 | 6 |  |
| COc1nc2ccc(C(O)(c3cnc(C)n3C)c3cnc(C)n3C)cc2c(Cl)c1CNC(=O)CCC(F)(F)F [Example 186, N-((6-(Bis(1,2-dimethyl-1H-imidazol-5-yl)(hydroxy)methyl)-4-chloro-2-methoxyquinolin-3-yl)methyl)-4,4,4-trifluorobutanamide] | > 6 | 5 |  |
